# CycPeptMPDB entries from one study

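The data file gives no further conditions (lipid, pH, time, direction or concentration), and values from different papers need not be comparable. Other peptides of the study may be missing here. Entries at the database's floor value (log10 P of -10) are not listed.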

PAMPA measures passive passage through an artificial lipid membrane.
Values are log10 P with P in cm/s, so -5 is more permeable than -7.

{"smiles": "CC(=O)N1CCC[C@@H]1C(=O)N(C)[C@H](CC(C)C)C(=O)N[C@@H]1C(=O)N[C@H](CC(C)C)C(=O)N(C)[C@@H](CC(C)C)C(=O)N(C)[C@H](CC(C)C)C(=O)N(C)[C@H](C)C(=O)N[C@H](CC(C)C)C(=O)N2CCC[C@H]2C(=O)O[C@@H]1C", "PAMPA (log10 cm/s)": "-5.44"}
{"smiles": "CC(=O)N1CCC[C@H]1C(=O)N(C)[C@H](CC(C)C)C(=O)N[C@@H]1C(=O)N[C@@H](CC(C)C)C(=O)N[C@H](CC(C)C)C(=O)N[C@@H](CC(C)C)C(=O)N[C@@H](C)C(=O)N[C@H](CC(C)C)C(=O)N2CCC[C@H]2C(=O)O[C@@H]1C", "PAMPA (log10 cm/s)": "-6.70"}
{"smiles": "CC(=O)N1CCC[C@@H]1C(=O)N(C)[C@@H](CC(C)C)C(=O)N[C@@H]1C(=O)N[C@H](CC(C)C)C(=O)N(C)[C@H](CC(C)C)C(=O)N[C@H](CC(C)C)C(=O)N[C@H](C)C(=O)N[C@H](CC(C)C)C(=O)N2CCC[C@H]2C(=O)O[C@@H]1C", "PAMPA (log10 cm/s)": "-6.12"}
{"smiles": "CC(=O)N1CCC[C@H]1C(=O)N[C@@H]1C(=O)N(C)[C@H](CC(C)C)C(=O)N[C@H](CC(C)C)C(=O)N(C)[C@@H](CC(C)C)C(=O)N[C@H](CC(C)C)C(=O)N(C)[C@H](C)C(=O)N[C@@H](CC(C)C)C(=O)N2CCC[C@@H]2C(=O)O[C@@H]1C", "PAMPA (log10 cm/s)": "-5.52"}
{"smiles": "CC(=O)N1CCC[C@H]1C(=O)N[C@@H]1C(=O)N(C)[C@H](CC(C)C)C(=O)N[C@@H](CC(C)C)C(=O)N[C@@H](CC(C)C)C(=O)N(C)[C@H](CC(C)C)C(=O)N[C@@H](C)C(=O)N[C@@H](CC(C)C)C(=O)N2CCC[C@@H]2C(=O)O[C@@H]1C", "PAMPA (log10 cm/s)": "-5.86"}
{"smiles": "CC(=O)N1CCC[C@@H]1C(=O)N(C)[C@H](CC(C)C)C(=O)N[C@@H]1C(=O)N[C@H](CC(C)C)C(=O)N(C)[C@@H](CC(C)C)C(=O)N[C@@H](CC(C)C)C(=O)N(C)[C@@H](C)C(=O)N[C@@H](CC(C)C)C(=O)N2CCC[C@@H]2C(=O)O[C@@H]1C", "PAMPA (log10 cm/s)": "-5.43"}
{"smiles": "CC(=O)N1CCC[C@@H]1C(=O)N(C)[C@H](CC(C)C)C(=O)N[C@@H]1C(=O)N[C@@H](CC(C)C)C(=O)N(C)[C@@H](CC(C)C)C(=O)N[C@@H](CC(C)C)C(=O)N(C)[C@@H](C)C(=O)N[C@@H](CC(C)C)C(=O)N2CCC[C@@H]2C(=O)O[C@@H]1C", "PAMPA (log10 cm/s)": "-5.46"}
{"smiles": "CC(=O)N1CCC[C@H]1C(=O)N(C)[C@H](CC(C)C)C(=O)N[C@@H]1C(=O)N[C@@H](CC(C)C)C(=O)N(C)[C@@H](CC(C)C)C(=O)N(C)[C@@H](CC(C)C)C(=O)N[C@@H](C)C(=O)N[C@H](CC(C)C)C(=O)N2CCC[C@H]2C(=O)O[C@@H]1C", "PAMPA (log10 cm/s)": "-5.94"}
{"smiles": "CC(=O)N1CCC[C@H]1C(=O)N[C@@H]1C(=O)N[C@H](CC(C)C)C(=O)N(C)[C@H](CC(C)C)C(=O)N[C@@H](CC(C)C)C(=O)N[C@H](CC(C)C)C(=O)N(C)[C@H](C)C(=O)N[C@@H](CC(C)C)C(=O)N2CCC[C@@H]2C(=O)O[C@@H]1C", "PAMPA (log10 cm/s)": "-4.90"}
{"smiles": "CC(=O)N1CCC[C@@H]1C(=O)N(C)[C@H](CC(C)C)C(=O)N[C@@H]1C(=O)N(C)[C@@H](CC(C)C)C(=O)N[C@@H](CC(C)C)C(=O)N(C)[C@@H](CC(C)C)C(=O)N(C)[C@H](C)C(=O)N[C@H](CC(C)C)C(=O)N2CCC[C@H]2C(=O)O[C@@H]1C", "PAMPA (log10 cm/s)": "-5.91"}
{"smiles": "CC(=O)N1CCC[C@H]1C(=O)N[C@@H]1C(=O)N[C@H](CC(C)C)C(=O)N[C@@H](CC(C)C)C(=O)N[C@@H](CC(C)C)C(=O)N(C)[C@@H](CC(C)C)C(=O)N(C)[C@@H](C)C(=O)N[C@@H](CC(C)C)C(=O)N2CCC[C@@H]2C(=O)O[C@@H]1C", "PAMPA (log10 cm/s)": "-6.27"}
{"smiles": "CC(=O)N1CCC[C@H]1C(=O)N(C)[C@H](CC(C)C)C(=O)N[C@@H]1C(=O)N[C@H](CC(C)C)C(=O)N[C@H](CC(C)C)C(=O)N[C@H](CC(C)C)C(=O)N(C)[C@H](C)C(=O)N[C@H](CC(C)C)C(=O)N2CCC[C@@H]2C(=O)O[C@@H]1C", "PAMPA (log10 cm/s)": "-6.39"}
{"smiles": "CC(=O)N1CCC[C@@H]1C(=O)N(C)[C@@H](CC(C)C)C(=O)N[C@@H]1C(=O)N[C@@H](CC(C)C)C(=O)N(C)[C@H](CC(C)C)C(=O)N(C)[C@H](CC(C)C)C(=O)N(C)[C@H](C)C(=O)N[C@H](CC(C)C)C(=O)N2CCC[C@H]2C(=O)O[C@@H]1C", "PAMPA (log10 cm/s)": "-5.59"}

The last 2 entries again:

| SMILES | PAMPA (log10 cm/s) |
|---|---|
| CC(=O)N1CCC[C@H]1C(=O)N(C)[C@H](CC(C)C)C(=O)N[C@@H]1C(=O)N[C@H](CC(C)C)C(=O)N[C@H](CC(C)C)C(=O)N[C@H](CC(C)C)C(=O)N(C)[C@H](C)C(=O)N[C@H](CC(C)C)C(=O)N2CCC[C@@H]2C(=O)O[C@@H]1C | -6.39 |
| CC(=O)N1CCC[C@@H]1C(=O)N(C)[C@@H](CC(C)C)C(=O)N[C@@H]1C(=O)N[C@@H](CC(C)C)C(=O)N(C)[C@H](CC(C)C)C(=O)N(C)[C@H](CC(C)C)C(=O)N(C)[C@H](C)C(=O)N[C@H](CC(C)C)C(=O)N2CCC[C@H]2C(=O)O[C@@H]1C | -5.59 |

Data: CycPeptMPDB; original report Kelly et al. 2021, doi:10.1021/jacs.0c06115.